Molecular target: T1, recombinant human KDM4A (Homo sapiens, UniProt O75164)
T1 construct: recombinantly expressed as reported either in Escherichia coli (KDM2A1–557 25, KDM4A1–359 26); His6 (N); made in house; host or cells: Escherichia coli
T1 sequence (O75164 1-359): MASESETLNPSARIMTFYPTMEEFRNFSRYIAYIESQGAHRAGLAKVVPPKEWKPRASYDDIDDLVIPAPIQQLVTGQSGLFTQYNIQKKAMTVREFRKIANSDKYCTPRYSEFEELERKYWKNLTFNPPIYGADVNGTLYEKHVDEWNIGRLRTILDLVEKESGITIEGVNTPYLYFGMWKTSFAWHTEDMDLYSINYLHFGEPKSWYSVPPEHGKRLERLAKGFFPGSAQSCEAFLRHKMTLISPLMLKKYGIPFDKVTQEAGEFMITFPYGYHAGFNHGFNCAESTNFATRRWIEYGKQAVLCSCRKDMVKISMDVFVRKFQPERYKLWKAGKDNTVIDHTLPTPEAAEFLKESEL
Experiment: Formaldehyde dehydrogenase (FDH)-coupled demethylation assay, Michaelis–Menten kinetics
Type: biochemical
Settings: peptide as substrate
Description: Kinetic parameters for KDM4 enzymes were determined by use of an FDH (formaldehyde dehydrogenase)/NAD^+‐coupled) assay for quantification of the formaldehyde reaction byproduct, as previously described 27. […] Specific activities were measured using a 100‐μM peptide. For Michaelis–Menten experiments, peptide concentrations were varied. Reactions were monitored using a PHERAstar FS plate reader (BMG Labtech, Ortenberg, Germany) with 355 nm excitation and 460 nm emission. Kinetic parameters were calculated from the reaction rate during the initial linear phase of formaldehyde production, which were used to calculate specific activities or fitted to Michaelis–Menten equations using GRAPHPAD PRISM (GraphPad Software, La Jolla, CA, USA).
Michaelis–Menten kinetics were then conducted with KDM4A. Samples containing KDM4A, 2OG, ascorbate, H1.4K26me3 peptide, NAD^+ and FDH were analysed over time and kinetic parameters were determined by recording the initial reaction rates of NADH production (corresponding to enzymatic production of formaldehyde) at varying peptide concentration. Similar experiments were carried out with H3K9me3 and H3K36me3 substrate peptides and the obtained values compared (Table 2). […] Demethylation of the H3K36me3 peptide was the least efficient, with higher K M (66.8 ± 5.4 μM) and lower k cat (0.12 ± 0.004 s^−1) values than with the other two peptides.

[1] = concentration varied, FDH/NAD+-coupled fluorescence assay, 50 mM HEPES pH 7.5, 0.01% Tween-20, 2OG 200 μM, KDM4A, mean and standard deviation of three independent replicates, SD

ARTKQTAR-Kme3-STGGKA [H3(1–15)K9me3, histone H3 residues 1–15 peptide with Kme3 at K9, well-characterised KDM4 substrate]
K M [1]: 25.5 ± 4.9 µM | k cat [1]: 0.31 ± 0.045 s⁻¹ | k cat/K M (FDH-coupled assay, ratio of k cat (s^−1) and K M (μM)): 0.0124 µM⁻¹ s⁻¹

Reference: publication PMC6220849, “Mechanistic and structural studies of KDM‐catalysed demethylation of histone 1 isotype 4 at lysine 26” (Febs Letters, 2018)
